The chains behind the UniProt entries cited, without tags or fusion partners.
UniProt P62937, whole entry: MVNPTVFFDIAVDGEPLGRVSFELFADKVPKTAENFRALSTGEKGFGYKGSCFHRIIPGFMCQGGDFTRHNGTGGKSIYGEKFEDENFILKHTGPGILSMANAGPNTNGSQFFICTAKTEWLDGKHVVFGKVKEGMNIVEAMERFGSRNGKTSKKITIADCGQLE

According to US20190151403A1, “NOVEL CYCLOSPORIN DERIVATIVES AND USES THEREOF” (S&T Global Inc., priority 2016, published 2019):

Target: T1, Human recombinant CypA (Homo sapiens, UniProt P62937)
T1 construct: purchased Atgen
Assay: Cyclophilin A PPIase inhibition, α-chymotrypsin-coupled assay
Assay type: biochemical
Conditions: 10 nM human recombinant CypA, 5° C, succinyl-AAPF-pNA substrate
Protocol: Inhibition of CyPA isomerase activity was assessed using the α-chymotrypsin-coupled assay adapted to a 96-well plate format. Human recombinant CypA (Atgen) was dissolved to 10 nM in isomerase buffer (50 mM Hepes, 100 mM NaCl, 1 mg/ml bovine serum albumin, 1 mg/ml a-chymotrypsin; pH 8). Succinyl-AAPF-pNA peptide substrate (Sigma) was dissolved to 3.2 mM in dried LiCl/trifluoroethanol. […] All solutions were equilibrated, and reactions conducted at 5° C. Reactions were initiated by mixing 95 μL reaction mix with 5 μL peptide preloaded in multiple wells of 96-well plates and measuring OD405 nm in each well at 6-sec intervals for 6 min using a BMG Polarstar Galaxy plate reader. Data were fitted with Graphpad Prism 6.0 to obtain first-order rate constants. Enzyme catalyzed rate constants were calculated by subtracting the rate constant from uncatalyzed reactions (no CypA), and the catalytic rate constants plotted as a function of inhibitor concentration to obtain IC50s (see […] et al., 2015, PLOS ONE).

C/C=C/C[C@@H](C)[C@@H](O)[C@H]1C(=O)N[C@@H](CC)C(=O)N(C)[C@H](SCCN(C)C)C(=O)N(C)[C@@H](CC(C)(C)O)C(=O)N[C@@H](C(C)C)C(=O)N(C)[C@@H](CC(C)C)C(=O)N[C@@H](C)C(=O)N[C@H](C)C(=O)N(C)[C@@H](CC(C)C)C(=O)N(C)[C@@H](CC(C)C)C(=O)N(C)[C@@H](C(C)C)C(=O)N1C
IC50: 4 to 10 nM
